Experimental data reported in patent publication US20260092061A1, “COMPOUNDS FOR TARGETED PROTEIN DEGRADATION” (Amphista Therapeutics Limited, priority 2022, published 2026).

The chains behind the UniProt entries cited, without tags or fusion partners.
UniProt Q9H8M2, whole entry: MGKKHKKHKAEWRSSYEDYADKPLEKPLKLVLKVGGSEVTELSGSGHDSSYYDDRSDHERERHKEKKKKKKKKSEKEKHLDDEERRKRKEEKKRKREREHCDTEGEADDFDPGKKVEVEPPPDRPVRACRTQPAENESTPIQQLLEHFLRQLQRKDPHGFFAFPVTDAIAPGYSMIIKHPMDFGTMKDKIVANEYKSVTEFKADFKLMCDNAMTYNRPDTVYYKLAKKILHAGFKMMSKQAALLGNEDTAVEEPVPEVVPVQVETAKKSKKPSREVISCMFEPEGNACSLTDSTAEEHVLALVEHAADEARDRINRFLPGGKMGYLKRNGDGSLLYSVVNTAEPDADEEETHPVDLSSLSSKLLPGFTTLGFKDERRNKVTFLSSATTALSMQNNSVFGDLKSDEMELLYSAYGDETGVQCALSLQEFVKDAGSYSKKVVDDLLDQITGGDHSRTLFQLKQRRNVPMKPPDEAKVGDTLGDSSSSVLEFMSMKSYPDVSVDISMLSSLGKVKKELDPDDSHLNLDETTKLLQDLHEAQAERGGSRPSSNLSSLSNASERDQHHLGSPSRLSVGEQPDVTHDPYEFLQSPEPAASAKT

Assays:
BRD9 [1] = target: T1, BRD9 (Homo sapiens, UniProt Q9H8M2); experiment: Degradation of BRD9 (IF), immunofluorescence in MV4-11 cells, 24 hours (Assay Protocol 2)
Description: Assay Protocol 2—Degradation of BRD9 (IF)
A suspension of MV4-11 cells (ATCC CRL-9591) was prepared in phenol red-free assay media (IMDM Thermo Scientific 21056023+10% FBS ATCC 302025) and cells were seeded at 20,000 cells per well (45 μL) in sterile black poly-d-lysine coated 384 well plates (Greiner 781948). Compounds were prepared at 1000× final concentration in DMSO, diluted 1:100 in assay media, and 5 μL compound was added to each well of the cell plate. Cells were incubated for 24 hours at 37° C. with 5% CO2. All the following incubations for immunofluorescence staining were at room temperature. 15 μL of 16% PFA was added to each well (3.7% final concentration) and the cells were fixed for 15 min then washed twice with DPBS. Cells were permeabilised with 0.1% Triton X-100 for 10 min, Triton X-100 was removed, then blocked with 1% BSA in DPBS for 1 hour. Cells were stained with 25 μL anti-BRD9 E4Q3F antibody (CST 48306) diluted 1:25600 in 1% BSA in DPBS for 2-3 hours. Wels were washed twice with DPBS then incubated with 25 μL of 1% BSA containing a 1:1000 dilution of Anti-rabbit Alexa Fluor™ 647 secondary antibody (Thero Scientific A21244) and 1 μg/mL Hoechst nuclear counter stain (Abcam ab228551) for 1 hour. Wells were washed twice with DPBS prior to imaging on a Perkin Elmer Operetta CLS with 10× air lens. Images were processed using Harmony High-Content Imaging and Analysis Software (Perkin Elmer) and the mean contrast ratio of Alexa Fluor™ 647 in central nuclei was used to quantify BRD9 protein levels. Data was further analysed using Dotmatics software and % BRD9 remaining was calculated by normalisation to average data from high and low control wells (cells treated with DMSO or 100 nM CFT-8634 respectively).

BRD9 [2] = target: T1, BRD9; experiment: BRD9 degradation, HiBiT-BRD9 KI HEK293 (LgBiT) cells, NanoGlo Lytic Endpoint assay (Assay Protocol 1)
Description: HiBiT-BRD9 KI HEK293 (LgBiT) Cells (Promega CS3023412) were seeded at 8000 cells per well (38 μL) in sterile white bottom 384 well plates (Invitrogen 164610 or Greiner 781080) and incubated overnight at 37° C. with 5% CO2. The next day, compounds were prepared at 1000× final concentration in DMSO and diluted 1:100 in media (DMEM PAN Biotech P04-03550+10% FBS ATCC 302025). 4 μL compound was added to each well of the cell plate and incubated for 6 h at 37° C. with 5% CO2 BRD9 expression was quantified using the NanoGlo Lytic Endpoint assay (Promega N3050). The lytic buffer was equilibrated to room temperature for 10-15 min before lytic reagent was prepared by adding substrate (1:50) and LgBit protein (1:100) in lytic buffer. 40 μL lytic reagent mix was added to each well of the cel plate and plates were centrifuged briefly at ˜50g. Plates were incubated with shaking (350 RPM) for 12-24 min before reading using the LUM plus module of a BMG Pherastar FSX. Data was analysed using Dotmatics software and % BRD9 remaining was calculated by normalisation to average data from high and low control wells (DMSO treated cels and no cells respectively).

Compound | DC50 (BRD9 [1]) [nM] | Dmax (BRD9 [1]) | DC50 (BRD9 [2]) [nM] | Dmax (BRD9 [2])
COc1cc(-c2cn(C)c(=O)c(C)c2C)cc(OC)c1CN1CCCN(Cc2cccc3c2CCN(C(=O)C(C#N)=CC(C)(C)CF)C3C(C)C)CC1 (single isomer, unassigned) | 25 to 1000 | + (+ = >40% and <70%) |  | 
COc1cc(-c2cn(C)c(=O)c(C)c2C)cc(OC)c1CN1CC2CC(C1)N2Cc1cccc(C2CCCN2C(=O)C(C#N)=CC(C)(C)C)c1 (stereo not drawn) | < 1.25 | +++ (+++ = ≥75%) | 1.25 to 10 | +++ (+++ = ≥75%)
